## OPERA 2.9 data: melting point values

Data: OPERA 2.9 data sets, kmansouri/OPERA on GitHub.

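OPERA's authors assembled the values from existing databases and did not measure them anew. A listed value is a point estimate from one report or more. Method, purity and exact conditions of the single measurements are not given. A value may pool stereoisomers or salt forms, and the file does not say which form was measured. Some entries may be limits or estimates that an upstream database listed as plain numbers.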

The melting point is given in degrees Celsius.
"n/a" marks a cell with nothing listed here.
"via" names the databases from which the curators took the value.

SMILES	name	melting point (°C)	via
Cn1c(CO)nc2ccccc21	(1-methyl-1H-benzimidazol-2-yl)methanol	145	OCHEM
CC(=O)Nc1ccc(S(=O)(=O)NCCC(=O)O)cc1	N-(4-Acetamidobenzene-1-sulfonyl)-beta-alanine	161	OCHEM
O=C(O)CCc1ccncc1	3-(pyridin-4-yl)propanoic acid	210	OCHEM
CC(C)Oc1ccc(C(=O)NCC(=O)O)cc1	(4-Isopropoxy-benzoylamino)-acetic acid	155	OCHEM
CCOC(=O)c1ccccc1NC	Ethyl N-methylanthranilate	39	PubChem
COc1ccc(-c2nn(-c3ccccc3)cc2C(=O)O)cc1	3-(4-Methoxyphenyl)-1-phenyl-1H-pyrazole-4-carboxylic acid	245	OCHEM
FC(F)C(F)(F)OC(F)(F)F	1,1,2,2-Tetrafluoro-1-(trifluoromethoxy)ethane	-141.2	ChemicalBook
Cc1ccc(NC(=O)c2ccccc2)cc1N	N-(3-amino-4-methylphenyl)benzamide	145	OCHEM
Fc1ccc(SCc2ccc(Cl)cc2)cc1	Fluorbenside	36	PubChem
Oc1ccc(Oc2ccccn2)cc1	4-[(Pyridin-2-yl)oxy]phenol	143	OCHEM
CC(O)CO.CC(O)C[N+](C)(C)CCCCCC[N+](C)(C)CC(C)O.[OH-].[OH-] (stereo unspecified)	n/a	-7.5	eChemPortal
N#CCC(=O)NCCN1CCOCC1	2-Cyano-N-[2-(morpholin-4-yl)ethyl]acetamide	71.5	OCHEM
CC[C@H]1NC(=O)[C@@H](NC(=O)c2ncccc2O)[C@@H](C)OC(=O)[C@H](c2ccccc2)NC(=O)[C@@H]2CC(=O)[C@H](CS[C@@H]3CN4CCC3CC4)CN2C(=O)[C@H](Cc2ccc(N(C)C)cc2)N(C)C(=O)[C@H]2CCCN2C1=O	Quinupristin	200	PubChem
Cc1ccc(S(=O)(=O)Cl)cc1C(=O)O	5-(Chlorosulfonyl)-2-methylbenzoic acid	150	OCHEM
COc1cccc(C2CC(=O)CC(=O)C2)c1	5-(3-methoxyphenyl)cyclohexane-1,3-dione	132	OCHEM
Cn1c(N)c(C(=O)CCl)c(=O)n(C)c1=O	n/a	186	OCHEM
CCCCC(CC)C(=O)[O-].CCCCC(CC)C(=O)[O-].[Ni+2] (stereo unspecified)	Nickel bis(2-ethylhexanoate)	50	eChemPortal
Cc1cc([N+](=O)[O-])cc(S(=O)(=O)Cl)c1C	Benzenesulfonyl chloride, 2,3-dimethyl-5-nitro-	67	OCHEM
CC(C)(C)c1cc(N)n(-c2cccc(Cl)c2)n1	3-tert-butyl-1-(3-chlorophenyl)-1H-pyrazol-5-amine	100	OCHEM
O=C1C=CC(=O)N1c1cccc(C(F)(F)F)c1	1-[3-(Trifluoromethyl)phenyl]-1H-pyrrole-2,5-dione	68	OCHEM
COc1ccccc1NC(=O)CC#N	2-cyano-N-(2-methoxyphenyl)acetamide	88.5	OCHEM
CN1CCN(C(N)=S)CC1	4-methylpiperazine-1-carbothioamide	180	OCHEM
C=CC(=O)OCC1CO1 (stereo unspecified)	Glycidyl acrylate	-41.5	PubChem
O=C(O)CCCSc1nc2ccccc2s1	n/a	104	OCHEM
CCOC(=O)c1c(N)sc(C(=O)N(C)C)c1C	n/a	120	OCHEM
O=P([O-])(O)CCC(F)(F)C(F)(F)C(F)(F)C(F)(F)C(F)(F)C(F)(F)F.[Na+]	Sodium hydrogen ((perfluorohexyl)ethyl)phosphonate	287	eChemPortal
O=C(O)CSc1nnc(NC2CCCCC2)s1	{[5-(cyclohexylamino)-1,3,4-thiadiazol-2-yl]thio}acetic acid	158	OCHEM
COc1ccccc1OCCBr	2-(2-Bromoethoxy)anisole	40	OCHEM
Cc1cc(C)c(OCC(=O)O)c(C)c1	(2,4,6-Trimethyl-phenoxy)-acetic acid	151	OCHEM
CC1(c2ccc([N+](=O)[O-])cc2)NC(=O)NC1=O (stereo unspecified)	5-Methyl-5-(4-nitro-phenyl)-imidazolidine-2,4-dione	236	OCHEM
O=C(CCl)NC1C2CC3CC(C2)CC1C3 (stereo unspecified)	N-Adamantan-2-yl-2-chloro-acetamide	120	OCHEM
O=C(O)c1n[nH]c2ccc([N+](=O)[O-])cc12	5-nitro-1H-indazole-3-carboxylic Acid	254	OCHEM
Nc1cccc(-c2nnc3n2CCCCC3)c1	3-{5H,6H,7H,8H,9H-[1,2,4]triazolo[4,3-a]azepin-3-yl}aniline	201	OCHEM
CCOC(=O)Cc1ccccc1Br	Ethyl 2-(2-bromophenyl)acetate	36.5	OCHEM
C[C@H](Nc1ncnc2nc[nH]c12)c1cc2cccc(Cl)c2c(=O)n1-c1ccccc1	Duvelisib	190	PubChem

The last 5 entries again:

| SMILES | name | melting point (°C) | via |
|---|---|---|---|
| O=C(CCl)NC1C2CC3CC(C2)CC1C3 (stereo unspecified) | N-Adamantan-2-yl-2-chloro-acetamide | 120 | OCHEM |
| O=C(O)c1n[nH]c2ccc([N+](=O)[O-])cc12 | 5-nitro-1H-indazole-3-carboxylic Acid | 254 | OCHEM |
| Nc1cccc(-c2nnc3n2CCCCC3)c1 | 3-{5H,6H,7H,8H,9H-[1,2,4]triazolo[4,3-a]azepin-3-yl}aniline | 201 | OCHEM |
| CCOC(=O)Cc1ccccc1Br | Ethyl 2-(2-bromophenyl)acetate | 36.5 | OCHEM |
| C[C@H](Nc1ncnc2nc[nH]c12)c1cc2cccc(Cl)c2c(=O)n1-c1ccccc1 | Duvelisib | 190 | PubChem |